{"sequences": {"note": "Amino acid sequences for entries named in this document (tags omitted). A change or cut given only in a name is not applied to a line headed by its entry.", "UniProt P07650": "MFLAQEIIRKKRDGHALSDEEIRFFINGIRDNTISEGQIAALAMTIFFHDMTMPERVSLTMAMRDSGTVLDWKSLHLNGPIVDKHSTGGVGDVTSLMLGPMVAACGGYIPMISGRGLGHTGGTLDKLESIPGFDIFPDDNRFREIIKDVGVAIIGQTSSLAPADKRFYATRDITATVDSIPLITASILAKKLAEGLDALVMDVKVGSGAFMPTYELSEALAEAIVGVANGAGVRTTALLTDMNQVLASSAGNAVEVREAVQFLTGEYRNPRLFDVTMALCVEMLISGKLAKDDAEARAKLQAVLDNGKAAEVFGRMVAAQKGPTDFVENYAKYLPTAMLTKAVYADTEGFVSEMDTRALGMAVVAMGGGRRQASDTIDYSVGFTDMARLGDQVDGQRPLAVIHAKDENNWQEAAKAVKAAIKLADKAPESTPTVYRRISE"}, "source": "ChEMBL document CHEMBL2401703", "about": "“Synthesis of pyrazolo[1,5-a][1,3,5]triazine derivatives as inhibitors of thymidine phosphorylase” (Eur J Med Chem, 2013)", "key": {"[1]": {"target": "Thymidine phosphorylase (Escherichia coli K-12) (UniProt P07650)", "assay": "Inhibition of recombinant Escherichia coli thymidine phosphorylase using thymidine as substrate at 50 uM by UV-spectrophotometric analysis relative to control", "outline": "(§1)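 TP (1.5 U/ml stock in pH 7.0 phosphate buffer) mixed with compound in DMSO (DMSO alone as blank) and thymidine (5 mM stock, 200 µl into 1 ml total) in pH 7.4 phosphate buffer. Absorbance decrease at 290 nm read at 4, 8, 12, 16 and 20 min. Velocity taken from the slope of a linear fit. Percent inhibition calculated versus the blank.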"}, "Thymidine phosphorylase": {"target": "Thymidine phosphorylase (Escherichia coli K-12, UniProt P07650)", "assay": "Inhibition of recombinant Escherichia coli thymidine phosphorylase using thymidine as substrate by UV-spectrophotometric analysis", "outline": "as §1"}}, "data": [{"smiles": "O=c1[nH]c(=S)[nH]c2cc(-c3ccccc3)nn12", "values": [{"measurement": "inhibition", "setting": "[1]", "result": 50, "unit": "%"}]}, {"smiles": "O=c1[nH]c(=O)c2cc[nH]c2[nH]1", "note": "[7-DEAZAXANTHINE]", "values": [{"measurement": "IC50", "setting": "Thymidine phosphorylase", "result": 32.2, "unit": "µM"}]}]}
